Target: Adenosine receptor A3 (Homo sapiens, UniProt P0DMS8)
Test: Binding affinity to adenosine A3R (unknown origin)

Amino acid sequences for entries named in this document (tags omitted).
UniProt P0DMS8, whole entry: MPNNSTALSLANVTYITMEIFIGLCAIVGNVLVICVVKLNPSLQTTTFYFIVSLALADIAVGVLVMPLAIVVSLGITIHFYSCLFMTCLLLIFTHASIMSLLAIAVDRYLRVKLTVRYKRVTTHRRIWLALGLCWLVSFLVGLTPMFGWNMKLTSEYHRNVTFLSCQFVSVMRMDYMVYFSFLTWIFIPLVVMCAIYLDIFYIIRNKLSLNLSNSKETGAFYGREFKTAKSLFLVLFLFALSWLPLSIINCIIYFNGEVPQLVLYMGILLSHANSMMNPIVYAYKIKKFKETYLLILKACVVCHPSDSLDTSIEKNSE

In the case of CCCn1cc2c(nc(NC(=O)Nc3ccc(OC)cc3)n3nc(-c4ccco4)nc23)n1, the Kd is reported as 0.55 nM.
